Experiments:
[1] = molecular target: p-BTK (WT) (Homo sapiens (Human), UniProt Q06187); assay: p-BTK cell experiment, HEK293 transfected with WT-BTK plasmid (P-BTK Y223 sandwich ELISA); settings: read-out: HEK293 p-BTK (WT) IC50, HEK293 cells, compound cultured for two hours
Description: (§1) Day 1: HEK293 cells (ADDEXBIO, T0011001) at logarithmic growth phase were taken, digested with enzyme EDTA, collected and counted, and 2E6 cells were inoculated in a 10 cm culture dish and cultured overnight. Day 2: A mixed solution containing 6 μg of WT-BTK/C481S-BTK plasmid and 18 μL of FuGENE HD transfection reagent was prepared by using 1000 μL of Opti-MEM. After standing at room temperature for 10 minutes, the mixed solution was slowly added to the culture dish with a pipettor and cultured overnight. Day 3: The culture dish was taken out, and the cells were digested with enzyme EDTA, collected and counted, and 1E4 cells were inoculated in a 96-well cell culture plate and cultured overnight. A 3.16-fold gradient concentration stock solution of 1000× compound was prepared using DMSO, and placed at room temperature. Day 4: A prepared 1000× compound stock solution was taken, and diluted 200-fold to 5× compound stock solution with culture medium. 5× compound stock solution was added to each cell culture well with a final concentration of 1× compound stock solution and a DMSO content of 0.1%. DMSO was used as an experimental control. After the compound was added and cultured for two hours, the residual culture medium was removed. 100 μL of cell lysis buffer was added to each well, stood on ice for 30 minutes, and ultrasonically lysed with ice water for 5 minutes. After diluting the cell lysate in proportion, 80 μL of the mixture was transfer to an ELISA plate, and 80 μL of cell lysis buffer was added to the blank well. After incubating in an incubator at 37° C. for 2 hours, the plate was taken and the antibody incubation and color development termination operation were completed according to the instructions of Pathscan P-BTK (Y223) Sandwich ELISA Kit (Cell Signaling #23843 CA), and finally the OD value was read. The inhibition rate of the compound (%)=(ODcontrol−ODcompound)/(ODcontrol−ODblank)×100% was calculated. The compound gradient dilution concentration and the corresponding cell proliferation inhibition rate were fit by using Prism 8 four-parameter method, and IC50 value was calculated.

Sequences of proteins named here, by UniProt entry; tags and fusion partners are left off. A change or cut given only in a name is not applied to a line headed by its entry.
UniProt Q06187, whole entry: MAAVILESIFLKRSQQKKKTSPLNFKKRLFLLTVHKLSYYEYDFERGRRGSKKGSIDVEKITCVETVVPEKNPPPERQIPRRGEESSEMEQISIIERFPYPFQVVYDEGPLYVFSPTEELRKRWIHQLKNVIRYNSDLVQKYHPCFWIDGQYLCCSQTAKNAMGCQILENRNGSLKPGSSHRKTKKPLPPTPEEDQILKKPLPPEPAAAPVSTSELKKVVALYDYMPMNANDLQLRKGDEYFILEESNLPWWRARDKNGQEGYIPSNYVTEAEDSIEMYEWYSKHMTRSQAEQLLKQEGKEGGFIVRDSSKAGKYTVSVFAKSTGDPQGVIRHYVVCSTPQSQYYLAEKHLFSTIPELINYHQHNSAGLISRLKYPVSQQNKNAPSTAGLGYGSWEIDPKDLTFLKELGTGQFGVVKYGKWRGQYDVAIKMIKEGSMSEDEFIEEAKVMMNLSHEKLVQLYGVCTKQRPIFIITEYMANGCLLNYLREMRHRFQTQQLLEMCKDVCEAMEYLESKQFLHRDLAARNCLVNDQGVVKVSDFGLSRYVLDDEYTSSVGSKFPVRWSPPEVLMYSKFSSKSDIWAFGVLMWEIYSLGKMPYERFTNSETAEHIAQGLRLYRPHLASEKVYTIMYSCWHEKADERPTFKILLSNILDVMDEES
UniProt Q06187, whole entry C481S: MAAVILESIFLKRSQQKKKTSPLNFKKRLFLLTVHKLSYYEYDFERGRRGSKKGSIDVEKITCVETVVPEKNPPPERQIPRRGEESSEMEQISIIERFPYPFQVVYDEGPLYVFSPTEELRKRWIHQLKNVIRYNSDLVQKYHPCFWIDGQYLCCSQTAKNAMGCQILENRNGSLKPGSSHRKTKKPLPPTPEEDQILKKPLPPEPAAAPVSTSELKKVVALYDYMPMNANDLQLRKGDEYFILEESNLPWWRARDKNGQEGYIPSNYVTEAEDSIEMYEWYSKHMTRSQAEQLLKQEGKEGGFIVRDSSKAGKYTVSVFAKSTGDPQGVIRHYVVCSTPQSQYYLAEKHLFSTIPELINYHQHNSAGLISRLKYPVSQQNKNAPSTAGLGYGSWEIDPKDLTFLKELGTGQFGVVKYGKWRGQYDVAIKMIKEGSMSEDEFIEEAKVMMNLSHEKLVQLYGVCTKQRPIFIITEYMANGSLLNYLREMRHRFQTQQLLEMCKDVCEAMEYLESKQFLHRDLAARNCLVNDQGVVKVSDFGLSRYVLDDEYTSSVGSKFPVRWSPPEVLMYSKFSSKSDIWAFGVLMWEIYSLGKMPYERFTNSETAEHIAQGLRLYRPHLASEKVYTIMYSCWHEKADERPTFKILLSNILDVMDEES

[2] = molecular target: p-BTK (C481S) (Homo sapiens (Human), UniProt Q06187, C481S); assay: p-BTK cell experiment, HEK293 transfected with C481S-BTK plasmid (P-BTK Y223 sandwich ELISA); settings: read-out: HEK293 p-BTK (C481S) IC50, HEK293 cells, compound cultured for two hours
Description: as §1

[3] = molecular target: BTK (Homo sapiens (Human), UniProt Q06187); assay: BTK enzyme experiment (ADP-Glo kinase assay); settings: read-out: BTK(WT) IC50; 10 nM BTK, ATP 125 μM, Poly(Glu4, Tyr1), 90 minutes at 20° C.
Description: (§2) A 3-fold gradient concentration stock solution of 1000× compound was prepared using DMSO and diluted 100-fold to 10× compound stock solution using reaction buffer (50 mM HEPES, pH 7.5, 0.0015% Briji-35, 2 mM DTT, 10 mM MgCl2), and the 10× compound stock solution was transferred to a 384-well plate. Enzyme reactions were set up with BTK Kinase Enzyme System (Promega Catalog #V2941) or BTK (C481S) Kinase Enzyme System (Promega Catalog #VA7033). First, a 2× enzyme solution containing 10 nM BTK or 10 nM BTK C481S was prepared with reaction buffer and added to the plate, and incubated with the compound for 10 minutes. Then, a 2.5× substrate solution containing ATP (125 μM) and Poly(Glu4, Tyr1) (0.05 μg/μL) was prepared with reaction buffer and added to the plate, and reacted at 20° C. for 90 minutes. Finally, the kinase activity was detected according to the experimental steps provided by ADP-Glo™ kinase Assay Kit (Promega, #V9101), and finally the luminescence chemiluminescence value was read. DMSO was used as the maximum signal value, and adding no enzyme was used as the minimum signal value. The inhibition rate of the compound (%)=(maximum signal value−compound signal value)/(maximum signal value−minimum signal value)×100% was calculated. The compound gradient dilution concentration and the corresponding inhibition rate of the enzyme activity were fit by using XLFit four-parameter method, and IC50 value was calculated.

[4] = molecular target: BTK (C481S) (Homo sapiens (Human), UniProt Q06187, C481S); assay: BTK C481S enzyme experiment (ADP-Glo kinase assay); settings: read-out: BTK(C481S) IC50; 10 nM BTK C481S, ATP 125 μM, Poly(Glu4, Tyr1), 90 minutes at 20° C.
Description: as §2

[5] = system: TMD-8 cells; assay: TMD-8 proliferation inhibition experiment; settings: read-out: TMD-8 IC50; human diffuse large B lymphoma cells, three days incubation
Description: (§3) TMD-8 cells are human diffuse large B lymphoma (Mingzhou Bio, MZ-0832), cultured in 10% FBS+1% PS 1640 medium; OCI-LY10 is human diffuse large B lymphoma (BeNa Culture Collection, BNCC337742), cultured in 10% FBS+1% PS IMDM. Day 1: Cells at logarithmic growth phase were taken, counted and inoculated 600 TMD-8 or 2000 OCI-LY10 cells in a 384-well cell culture plate and cultured overnight. Day 2: A 3-fold gradient concentration stock solution of 400× compound was prepared with DMSO, and diluted 40-fold to a 10× compound stock solution with culture medium. The 10× compound stock solution was added to each cell culture well with a final concentration of 1× compound stock solution and a DMSO content of 0.25%. DMSO was used as experimental control, and culture medium was used as blank control. The incubation was continued for three days after compound addition. On the fifth day, 25 μL of […] was added to each well, mixed well and incubated for 10 minutes, then the chemiluminescence value (RLU value) was read. The cell proliferation inhibition rate (%)=(RLUcontrol−RLUcompound)/(RLUcontrol−RLUblank)×100% was calculated. The compound gradient dilution concentration and the corresponding cell proliferation inhibition rate were fit by using XLFit four-parameter method, and IC50 value was calculated.

[6] = system: OCI-LY10 cells; assay: OCI-LY10 proliferation inhibition experiment; settings: read-out: OCI-ly10 IC50; human diffuse large B lymphoma cells, three days incubation
Description: as §3

Compound	IC50 [1] [nM]	IC50 [2] [nM]	IC50 [3] [nM]	IC50 [4] [nM]	IC50 [5] [nM]	IC50 [6] [nM]
O=C(c1ccc(Oc2ccccc2)cc1Cl)c1c[nH]c2ncc3c(c12)N[C@@]1(CC[C@@H](CO)OC1)C(=O)N3	53	135				
O=C(c1ccc(Oc2ccccc2)cc1Cl)c1c[nH]c2ncc3c(c12)N[C@]1(CC[C@H](CO)OC1)C(=O)N3 (single isomer, unassigned)	25.1	79	5.5	4.8	49.7	
O=C(c1ccc(Oc2ccccc2)cc1Cl)c1c[nH]c2ncc3c(c12)N[C@]1(CC[C@@H](CO)OC1)C(=O)N3 (single isomer, unassigned)	48.1	50.1	4.3	3.4	50.9	
CN1C(=O)C2(CCOC2)Nc2c1cnc1[nH]cc(C(=O)c3ccc(Oc4ccccc4)cc3Cl)c21 (stereo not shown)	359	340	48.9	35.2	247	903
N#CC1CCC2(C1)Nc1c(cnc3[nH]cc(C(=O)c4ccc(Oc5ccccc5)cc4Cl)c13)NC2=O (stereo not shown)					142	
O=C(c1ccc(Oc2ccccc2)cc1Cl)c1c[nH]c2ncc3c(c12)N[C@@]1(CC[C@@H](CO)OC1)C(=O)N3 (single isomer, unassigned)			3.6	4.1	64.2	
